Experimental data as given in patent publication US8354433B2, “Anti-inflammatory agents as virostatic compounds” (4SC AG, priority 2009, dated 2013).

Test system: HCV subgenomic replicon of genotype 1b
Type: cell-based, Hepatitis C Virus

## rIFNa-2b: Recombinant human interferon alpha-2b, positive antiviral control in the HCV replicon assay
  Antiviral Activity EC50/nM: 0.11 IU/mL
